The values that follow come from patent US20090105220A1, “PROCESS FOR THE PREPARATION OF NONPEPTIDE SUBSTITUTED SPIROBENZOAZEPINE DERIVATIVES” (priority 2003, published 2009).

This data set is described as follows: Solubility in water. As to conditions: isolated crystalline salt.

For the substance “(4R)-1-[4-(2-chloro-5-fluorobenzoyl)amino-3-methoxybenzoyl]-1,2,3,5-tetrahydro-spiro[4H-1-benzazepine-4,1′-[2]cyclopentene]-3′-carboxylic Acid Diethylamine Salt [Example 26]”, the Solubility in water was > 10000 µg/mL.
